# Measurements published in ChEMBL document CHEMBL4308823, “Small Molecule Mitochondrial Uncouplers and Their Therapeutic Potential” (J Med Chem, 2018).
# Only a part of the results on these compounds is given; other tests are left out.
# Assay: Toxicity in ip dosed Sprague-Dawley rat
# Details: in vivo
smiles,measurement,value
COc1ccc([N+](=O)[O-])cc1[N+](=O)[O-],LD50,350 mg/kg
